Experimental data from patent US10752596B2, “Nitrogen-containing heteroaryl compound and pharmaceutical use thereof” (JAPAN TOBACCO INC., priority 2017, dated 2020).

Chains of the proteins cited; added tags and fusions are not shown. A line that says so, or that is headed by a name, gives the form on record, which may keep a tag or linker.
UniProt Q9NRM0, other isoform, or with tags, fused parts or gaps: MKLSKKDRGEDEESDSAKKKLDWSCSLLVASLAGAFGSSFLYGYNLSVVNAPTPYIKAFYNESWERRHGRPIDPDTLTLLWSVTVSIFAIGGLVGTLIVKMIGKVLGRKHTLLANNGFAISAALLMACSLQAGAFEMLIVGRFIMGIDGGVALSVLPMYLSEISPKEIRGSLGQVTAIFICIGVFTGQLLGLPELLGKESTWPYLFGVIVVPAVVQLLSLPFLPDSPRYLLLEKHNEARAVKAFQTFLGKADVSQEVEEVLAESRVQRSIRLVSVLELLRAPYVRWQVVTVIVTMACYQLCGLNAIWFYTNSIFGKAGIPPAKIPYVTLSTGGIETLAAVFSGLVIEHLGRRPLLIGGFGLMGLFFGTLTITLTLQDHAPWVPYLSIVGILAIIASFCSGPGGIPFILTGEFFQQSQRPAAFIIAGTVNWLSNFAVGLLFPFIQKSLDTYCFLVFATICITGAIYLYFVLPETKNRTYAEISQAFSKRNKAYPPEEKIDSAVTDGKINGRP

These compounds were tested against human GLUT9 (Homo sapiens (Human), UniProt Q9NRM0) (assay: Evaluation of human GLUT9 inhibitory activity ([14C] uric acid uptake in human GLUT9 expressing HEK293T cells transduced with Uricase/Hyper)). Settings: HEK-293T, 10 μM compound, human GLUT9 stably expressing HEK293T cells, read-out: GLUT9 inhibitory rate at 10 μM of compound.
Format: cell-based
Procedure: A method for measuring GLUT9 inhibitory activity using human GLUT9 expressing cells transduced with Uricase/Hyper is shown hereinafter. GLUT9 inhibitory activity ([…]) of the test compound was calculated based on the intracellular uptake amount of labeled uric acid ([^14C] uric acid) transported by GLUT9.
1. Preparation of Human GLUT9 Expression Plasmid
Human GLUT9S coding region (NM_001001290.1) was amplified by PCR method using PrimeSTAR MAX DNA Polymerase (Takara Bio). The obtained PCR product was subjected to agarose gel electrophoresis, and the desired size of PCR product was purified by QIAquick Gel Extraction Kit (QIAGEN). Next, pEBMulti-Bsd vector (Wako Pure Chemical Industries, Ltd.) was subjected to digestion using restriction enzymes SalI and EcoR V, and linked to the PCR product containing GLUT9S by In-Fusion reaction using In-Fusion HD Cloning Kit (Takara Bio). XL10-Gold Competent Cells (Agilent Technologies) were transformed in In-Fusion reaction solution, and the obtained transfectants were cultured with shaking overnight in LB medium to which Blasticidin S HCl (Thermo Fisher Scientific) was added. Human GLUT9 expression plasmid DNA was prepared from the collected transfectants using EndoFree Plasmid Kit (Takara Bio).
2. Establish of Human GLUT9 Stably Expressing Cell
HEK293T cells (American Type Culture Collection, DS Pharma Biomedical) were seeded in a 6 well plate at 1×10^6 cells/well. Next day, human GLUT9 expression plasmid was transfected by using Lipofectamine 3000 Reagent (Thermo Fisher Scientific) as follows. Lipofectamine 3000 Reagent (5 μL) was diluted with Opti-MEM (125 μL, Thermo Fisher Scientific). Separately, plasmid DNA (2.5 μg) was diluted with Opti-MEM (125 μL), and P3000 Reagent (5 μL) was added thereto. The obtained solution was mixed with the previously obtained diluted solution, and the mixture was left stand at room temperature for 5 min, and added to the cells. Next day, the transfected cells were diluted and reseeded in a 6 well plate at 4×10^5 cells/well, and drug selection was performed in the presence of 30 μg/mL of Blasticidin S HCl, and thereby, Blasticidin-resistant human GLUT9 stably expressing cell line was established. Mock cells were prepared by introducing pEBMulti-Bsd vector into HEK293T cells in a similar manner.
3. Preparation of Uricase/Hyper Expression Plasmid
Uricase/Hyper expression plasmid was prepared by linking the coding regions of Aspergillus Flavus-derived uricase gene and pHyPer-Cyto vector (Evrogen) HyPer gene to the pEBMulti-Hyg vector (Wako Pure Chemical Industries, Ltd.) and then introducing it. The preparation method was performed by reference to Gout and Nucleic Acid Metabolism 2013, 37(2), 93-101, and seven repeated linker sequence of glycine-glycine-glycine-serine was prepared herein.
4. Preparation of Human GLUT9-Uricase/Hyper Coexpressing Cell
Human GLUT9 stably expressing cells were seeded at 3.6×10^7 cells per 225 cm^2 flask. Next day, Uricase/Hyper expression plasmid was transfected by using Lipofectamine 3000 Reagent as follows. Lipofectamine 3000 Reagent (40 μL) was diluted with Opti-MEM (750 μL). Separately, plasmid DNA (20 μg) was diluted with Opti-MEM (750 μL), and P3000 Reagent (40 μL) was added thereto. The obtained solution was mixed with the previously obtained diluted solution, and the mixture was left stand at room temperature for 5 min, and added to the cells. Next day, transfected cells were collected to prepare human GLUT9-Uricase/Hyper coexpressing cells.
5. Evaluation of GLUT9 Inhibitory Activity
Uricase/Hyper transiently-transfected human GLUT9 stably expressing cells or mock cells (blank) were seeded in a 96 well plate (Corning) at 1.6×10^5 cells/well, and cultured overnight at 37° C., 5% CO2. D-MEM/high glucose (Wako Pure Chemical Industries, Ltd.) containing 10% Fetal Bovine Serum (Lifetechnology) and 100 units/ml penicillin/100 μg/ml streptomycin (GIBCO) was used as a medium. […]
Work on `COc1ccc(-c2ncc([C@H]3CC[C@H](OC)CC3)cc2-c2ccc(C(=O)O)cc2)cc1` [Example 54] yielded an inhibition at 10 µM of 43%.

Same assay, conditions: final 300 μM uric acid, 6 min, human GLUT9 stably expressing HEK293T cells, read-out: humans GLUT9 inhibitory activity (IC50 value (μM))
`CCCCc1cnc(-c2ccc(OC)cc2)c(-c2ccc(C(=O)O)cc2C)n1` [Example 4] showed an IC50 of 0.612 µM.
For `CCCCc1cnc(-c2ccc(C(F)(F)F)cc2)c(-c2ccc(C(=O)O)cc2)n1` [Example 13], the IC50 was 0.219 µM.
For `CCCCc1cnc(-c2ccc(C(F)(F)F)c(Cl)c2)c(-c2ccc(C(=O)O)cc2)n1` [Example 27], the IC50 was 0.255 µM.
`COc1ccc(-c2ncc(C3CCCCC3)cc2-c2ccc(C(=O)O)cc2)cc1` [Example 46] showed an IC50 of 2.75 µM.
Compound `COc1ccc(-c2ncc([C@H]3CC[C@@H](OC)CC3)cc2-c2ccc(C(=O)O)cc2)cc1` [Example 53] has an IC50 of 0.46 µM.
For `COCCCc1cnc(-c2cc(F)c(OC)c(F)c2)c(-c2ccc(C(=O)O)cc2)n1` [Example 67, 4-(3-(3,5-difluoro-4-methoxyphenyl)-6-(3-methoxypropyl)pyrazin-2-yl)benzoic Acid], the IC50 was 0.102 µM.
`CCCCc1cnc(-c2ccc(OCC)cc2)c(-c2ccc(C(=O)O)cc2)n1` [Example 82] was tested, and the IC50 was 0.245 µM.
Compound `COc1ccc(-c2ncc(CCC(C)C)cc2-c2ccc(C(=O)O)cc2)cc1` [Example 85] has an IC50 of 0.853 µM.
`CCCCc1cnc(-c2ccc(OC(F)F)cc2)c(-c2ccc(C(=O)O)cc2)n1` [Example 90] was tested, and the IC50 was 0.14 µM.
Work on `COc1ccc(-c2ncc(CCCOCC(F)(F)F)cc2-c2ccc(C(=O)O)cc2)cc1` [Example 104] yielded an IC50 of 0.139 µM.
`COCCCc1cnc(-c2cc(F)c(OC)c(F)c2)c(-c2ccc(C(=O)O)c(Cl)c2)c1` [Example 122] gave an IC50 of 0.258 µM.
`COCCCc1cnc(-c2cc(F)c(OC)c(F)c2)c(-c2ccc(C(=O)O)c(O)c2)c1` [Example 124] showed an IC50 of 0.183 µM.
`CCOCCc1cnc(-c2cc(F)c(OC)c(F)c2)c(-c2ccc(CCC(=O)O)cc2)c1` [Example 128] showed an IC50 of 0.0732 µM.
In the case of `CCCOCc1cnc(-c2ccc(OC)cc2)c(-c2ccc(CCC(=O)O)cc2)c1` [Example 144], the IC50 is reported as 0.327 µM.
Work on `CCCOCc1cnc(-c2cc(F)c(OC)c(F)c2)c(-c2ccc(C(=O)O)cc2)c1` [Example 145] yielded an IC50 of 0.106 µM.
